# Experimental data reported in PubChem BioAssay AID690 (Sanford-Burnham Center for Chemical Genomics, 2007).
# Sequences of proteins named here, by UniProt entry; tags and fusion partners are left off.
# UniProt P05187, whole entry: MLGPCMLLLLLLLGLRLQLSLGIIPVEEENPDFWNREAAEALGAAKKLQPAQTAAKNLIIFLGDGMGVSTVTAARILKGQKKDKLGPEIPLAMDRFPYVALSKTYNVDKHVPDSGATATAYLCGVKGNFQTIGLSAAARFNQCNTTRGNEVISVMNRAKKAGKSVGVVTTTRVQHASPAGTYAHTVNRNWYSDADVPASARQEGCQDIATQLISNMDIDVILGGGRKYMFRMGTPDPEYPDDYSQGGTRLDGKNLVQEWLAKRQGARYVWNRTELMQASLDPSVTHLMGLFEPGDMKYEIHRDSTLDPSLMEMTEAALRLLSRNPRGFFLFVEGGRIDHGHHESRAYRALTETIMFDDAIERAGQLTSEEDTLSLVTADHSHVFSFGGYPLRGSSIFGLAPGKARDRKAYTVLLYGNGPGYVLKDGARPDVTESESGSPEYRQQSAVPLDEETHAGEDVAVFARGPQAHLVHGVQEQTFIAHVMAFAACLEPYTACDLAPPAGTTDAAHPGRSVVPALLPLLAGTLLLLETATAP
# This is a selection; strong and weak results do not stand in their true shares. Results with a measured potency or affinity are listed apart. Active and inactive are the calls of the source. The rule behind the calls is not given here.
# Target: Alkaline phosphatase, placental type (Homo sapiens) (UniProt P05187)
# Assay: PLAP enzyme inhibitors, biochemical, luminescence, HTS (AID 690)
# Conditions: purified PLAP, luminescent substrate; at 20 µM; stronger effect = higher value
row,Compound,inhibition
1,CP(=O)(Nc1ccc(Cl)cc1)Oc1ccc(F)cc1 (configuration not stated),inactive: -14.8%
2,CC(C)(C)c1ccc(OP(C)(=O)O)cc1,inactive: -27.7%
3,CCN(CC)CC(O)COC(=O)C(O)(c1ccccc1)C1CCCCC1 (configuration not stated),inactive: -26.3%
4,CP(=O)(Oc1ccccc1)N1CCOC1=O (configuration not stated),inactive: 13%
5,COc1ccccc1OP(C)(=O)Nc1c(C)n(C)n(-c2ccccc2)c1=O (configuration not stated),inactive: 6.2%
6,CP(=O)(OC12CC3CC(CC(C3)C1)C2)OC12CC3CC(CC(C3)C1)C2,inactive: -55.5%
7,Cc1nc2ccc3ccccc3c2o1.O=[N+]([O-])c1cc([N+](=O)[O-])c(O)c([N+](=O)[O-])c1,inactive: 0.5%
8,COc1ccccc1OP(C)(=O)Nc1ccc(C)c(C)c1 (configuration not stated),inactive: -4.6%
9,Cc1c(NP(C)(=O)Oc2ccc(C(C)C)cc2)c(=O)n(-c2ccccc2)n1C (configuration not stated),inactive: -43.5%
10,CCc1ccc(OP(C)(=O)O)cc1,inactive: -65.6%
11,COc1ccccc1OP(C)(=O)Nc1ccc(C)cc1C (configuration not stated),inactive: 2.4%
12,CP(=O)(Nc1ccccn1)Oc1ccccc1 (configuration not stated),inactive: 21.9%
13,CN(C)CCOC(=O)C(O)(c1ccccc1)C1CCCC1 (configuration not stated),inactive: -6.1%
14,COc1ccc(OP(C)(=O)Nc2ccccn2)cc1 (configuration not stated),inactive: 9.9%
15,CP(=O)(Nc1ccccc1F)Oc1ccccc1 (configuration not stated),inactive: 16%
16,CP(=O)(Nc1ccccc1)Oc1ccc(F)cc1 (configuration not stated),inactive: -12.5%

row,Compound,inhibition
1,COc1ccc(OP(C)(=O)Nc2cccc(Br)c2)cc1 (configuration not stated),inactive: 9.3%
2,CN(C)CCOC(=O)C(O)(c1ccccc1)C1CCCCC1 (configuration not stated),inactive: -0.7%
3,Cc1ccccc1NP(C)(=O)Nc1ccccc1C,inactive: 9.3%
4,CCOP(C)(=S)SCC(=O)NC(C)(CC)C(=O)O (configuration not stated),inactive: -9.7%
5,Cc1nc2ccc3ccccc3c2s1.O=[N+]([O-])c1cc([N+](=O)[O-])c(O)c([N+](=O)[O-])c1,inactive: 18.5%
6,COc1ccccc1OP(C)(=O)Nc1c(C)cccc1C (configuration not stated),inactive: 15.4%
7,Cc1cc(C)cc(OP(C)(=O)Nc2ccccn2)c1 (configuration not stated),inactive: 28.7%
8,Cc1ccc(C)c(NP(C)(=O)Oc2ccccc2)c1 (configuration not stated),inactive: -5.5%
9,Cc1cc(C)cc(OP(C)(=O)Nc2ccc(C)cc2C)c1 (configuration not stated),inactive: -21.1%
10,Cc1ccc(NP(C)(=O)Oc2ccccc2)c(C)c1 (configuration not stated),inactive: -37%
11,COc1ccccc1OP(C)(=O)Nc1ccc(C)cc1 (configuration not stated),inactive: 9.2%
12,COc1ccc(OP(C)(=O)Nc2cccc(F)c2)cc1 (configuration not stated),inactive: -8.9%
13,CP(=S)(Nn1cnnc1)Oc1ccccc1 (configuration not stated),inactive: 27%
14,CCOP(C)(=S)SCC(=O)NC(C)C(=O)O (configuration not stated),inactive: -20.6%
15,CP(=O)(Nc1ccccn1)Oc1ccc(Cl)cc1 (configuration not stated),inactive: 2.4%
16,CP(=O)(NC(=O)Nc1ccccc1)Oc1ccccc1 (configuration not stated),inactive: -11.4%
